Measurements from patent publication US20140241984A1.
Each block holds one substance with its values, some of them ahead of it.

How the values were obtained:
Syn-F2 [1] = experiment: inhibition ELISA: soluble fibrils titrated against 10 ng/ml Syn-F2, binding to coated α-synuclein fibrils read
Syn-O1 [2] = experiment: inhibition ELISA: soluble fibrils titrated against 10 ng/ml Syn-O1, binding to coated α-synuclein fibrils read
Syn-O2 [3] = experiment: inhibition ELISA: soluble fibrils titrated against 10 ng/ml Syn-O2, binding to coated α-synuclein fibrils read
Syn-O3 [4] = experiment: inhibition ELISA: soluble fibrils titrated against 10 ng/ml Syn-O3, binding to coated α-synuclein fibrils read
Syn-O4 [5] = experiment: inhibition ELISA: soluble fibrils titrated against 10 ng/ml Syn-O4, binding to coated α-synuclein fibrils read
Syn-F1 [6] = experiment: inhibition ELISA: soluble fibrils titrated against 10 ng/ml Syn-F1, binding to coated α-synuclein fibrils read; soluble fibrils as inhibitor, not monomers
[7] = target: Syn-1 (Mouse anti-α-synuclein; BD Bioscience); experiment: inhibition ELISA: soluble monomers titrated against 10 ng/ml Syn-1, binding to coated α-synuclein fibrils read
Syn-F1 [8] = experiment: inhibition ELISA: soluble monomers titrated against 10 ng/ml Syn-F1, binding to coated α-synuclein fibrils read
Syn-F2 [9] = experiment: inhibition ELISA: soluble monomers titrated against 10 ng/ml Syn-F2, binding to coated α-synuclein fibrils read
Syn-O1 [10] = experiment: inhibition ELISA: soluble monomers titrated against 10 ng/ml Syn-O1, binding to coated α-synuclein fibrils read
Syn-O2 [11] = experiment: inhibition ELISA: soluble monomers titrated against 10 ng/ml Syn-O2, binding to coated α-synuclein fibrils read
Syn-O3 [12] = experiment: inhibition ELISA: soluble monomers titrated against 10 ng/ml Syn-O3, binding to coated α-synuclein fibrils read
Syn-O4 [13] = experiment: inhibition ELISA: soluble monomers titrated against 10 ng/ml Syn-O4, binding to coated α-synuclein fibrils read

IC50 (Syn-F2 [1]): 1.18 nM
IC50 (Syn-O1 [2]): 0.37 nM
IC50 (Syn-O2 [3]): 0.12 nM
IC50 (Syn-O3 [4]): 0.47 nM
IC50 (Syn-O4 [5]): 0.52 nM
IC50 (Syn-F1 [6]): 0.12 nM
Substance: α-synuclein fibrils (from UniProt P37840 1-140) (other; other documents disagree on this pair)

IC50 [7]: 1 nM
Substance: α-synuclein monomers (from UniProt P37840 1-140)

IC50 (Syn-F1 [8]): 2080 nM
IC50 (Syn-F2 [9]): 3710 nM
IC50 (Syn-O1 [10]): 4790 nM
IC50 (Syn-O2 [11]): 3280 nM
IC50 (Syn-O3 [12]): 5330 nM
IC50 (Syn-O4 [13]): 3600 nM
Substance: α-synuclein monomers (from UniProt P37840 1-140) (other; other documents disagree on this pair)
